We go through 1 compound from ChEMBL document CHEMBL1126282, “Synthesis and conformational properties of the lanthionine-bridged opioid peptide [D-AlaL2,AlaL5]enkephalin as determined by NMR and computer simulations” (J Med Chem, 1992).

The species entered for the test is Cavia porcellus. The test can be described thus: Potency to inhibit electrically induced contraction of guinea pig ileum(GPI) relative to [Leu5]-enkephalin. The format is functional.

The compound `CN1CC[C@]23c4c5ccc(O)c4O[C@H]2[C@@H](O)C=C[C@H]3[C@H]1C5` [MORPHINE] came in with a Relative potency of 4.2.
